# Laboratory results from patent US12084523 (TECHNION RESEARCH AND DEVELOPMENT FOUNDATION, dated 2024).
# B1: J01_mClBz (peptide)
# peptide: WYDREYYYLGYGCG
# modifications: N-terminal mClBz thioether anchor (M*), cyclized through the chlorobenzyl group
# notes: M* is the anchor and is not counted as a residue; also called J01 (M* = mClBz)
# Molecular target: T1, biotin-^K48Ub2 (chemically synthesized K48-linked di-ubiquitin, biotin on the distal Ub) (UniProt P0CG48 1-76, isopeptide bond from the C-terminus of the distal Ub to Lys48 of the proximal Ub; biotin at the N-terminus of the distal Ub)
# T1 construct: mature; also called Lys48-linked ubiquitin dimer
# Experiment: SPR, K48-Ub2
row,Kd [nM],Binder
1,1.2,"GWFDDLYWFVAYCG (N-terminal mClBz thioether anchor (M*), cyclized, also called J08_L8W) [J08_mClBz_L8W]"
2,5.6,"GWFDDLYLFYAYCG (N-terminal mClBz thioether anchor (M*), cyclized) [J08_mClBz_V10Y]"
3,16,"GWFDNLYWYITHCG (N-terminal mClBz thioether anchor (M*), cyclized through the chlorobenzyl group, also called J02 (M* = mClBz)) [J02_mClBz]"
4,141,B1
5,48,"GWFDNLYWYITHCG (N-terminal pClBz thioether anchor (M*), cyclized through the chlorobenzyl group, also called J02 (M* = pClBz)) [J02_pClBz]"
6,141,"WYDREYYYLGYGCG (N-terminal pClBz thioether anchor (M*), cyclized through the chlorobenzyl group, also called J01 (M* = pClBz)) [J01_pClBz]"

# Molecular target: T1, biotin-^K48Ub2 (chemically synthesized …)
# Experiment: SPR, K48-Ub2
# Remark: another data set of the same source
row,Kd [nM],Binder
1,0.58,"GWFDDLYLYVAYCG (N-terminal mClBz thioether anchor, cyclized) [J08_mClBz_F9Y]"
2,1.2,"GWFDDLYWFVAYCG (N-terminal mClBz thioether anchor (M*), cyclized, also called J08_L8W) [J08_mClBz_L8W]"
3,5.6,"GWFDDLYLFYAYCG (N-terminal mClBz thioether anchor (M*), cyclized) [J08_mClBz_V10Y]"
4,7.6,"GWFDDEYWFYAYCG (N-terminal mClBz thioether anchor (M*), cyclized) [J08_mClBz_L6E_L8W_V10Y]"

# Molecular target: T1, biotin-^K48Ub2 (chemically synthesized …)
# Experiment: SPR, K48-Ub2; pClBz anchor, not mClBz; wildtype J08
row,Kd [nM],Binder
1,234,"GWFDDLYLFVAYCG (N-terminal pClBz thioether anchor (M*), cyclized through the chlorobenzyl group, also called J08 (M* = pClBz)) [J08_pClBz]"
